# Reference: publication PMC2906776 (Bioorganic & medicinal chemistry, 2009)
# System: ER positive MCF-7 cells
substance,measurement,value
"Rhodamine coupled per-6-(4-hydroxymethyl-1,2,3-triazolmethyl)-6-deoxy-β-cyclodextrin [Compound 26R]",Cellular localization / membrane permeation,no evidence for cell membrane permeation
